The results in this text go back to PubChem BioAssay AID717 (Columbia University Molecular Screening Center, 2007).

Sequences of proteins named here, by UniProt entry; tags and fusion partners are left off.
UniProt P34913, whole entry: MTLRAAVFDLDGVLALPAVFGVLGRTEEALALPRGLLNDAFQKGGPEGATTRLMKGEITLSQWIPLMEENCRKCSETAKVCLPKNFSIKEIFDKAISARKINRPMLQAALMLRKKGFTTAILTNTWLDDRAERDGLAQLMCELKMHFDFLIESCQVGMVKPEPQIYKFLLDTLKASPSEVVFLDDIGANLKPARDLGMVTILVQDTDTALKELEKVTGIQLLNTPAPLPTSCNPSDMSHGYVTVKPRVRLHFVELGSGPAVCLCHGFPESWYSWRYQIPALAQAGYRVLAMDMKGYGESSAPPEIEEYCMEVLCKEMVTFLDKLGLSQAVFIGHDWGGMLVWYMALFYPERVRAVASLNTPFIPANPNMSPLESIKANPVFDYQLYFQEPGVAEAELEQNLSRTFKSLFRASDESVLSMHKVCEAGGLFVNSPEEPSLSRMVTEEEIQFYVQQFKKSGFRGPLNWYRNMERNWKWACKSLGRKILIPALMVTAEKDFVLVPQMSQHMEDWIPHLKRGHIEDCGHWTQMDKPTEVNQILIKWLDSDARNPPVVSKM

Structures are written as SMILES. The list shows a part of the results, in another mix than the full data. Some results for these compounds are left out of this collection, so the calls shown say nothing about other tests. Activity calls are given as the source filed them. Rule as the data show it: active = activation above about 37%; inactive = the rest.

The assay deals with Bifunctional epoxide hydrolase 2 (Homo sapiens) (UniProt P34913). The experiment in a line: soluble epoxide hydrolase activators, primary screen, biochemical, human sEH (AID 717). The settings on record: purified human sEH enzymatic activity, activator screen; at 2 µM; stronger effect = higher value.
As to `CN(C)c1cccc(C(=O)NCC2(N(C)C)CCCCC2)c1`, the activation was inactive: 10.7%. As for `O=C(OC1CN2CCC1CC2)C(CO)(c1ccccc1)c1ccccc1` (stereo not drawn), the activation was inactive: 0.4%. Consider `CC(C)N1C(=O)CC2(CCN(CCOC(=O)C(O)(c3ccccc3)c3ccccc3)CC2)C1=O`, for which the activation is inactive: 6.3%.
